Laboratory results as given in patent US8034797B2, “Triazene compounds for the treatment of cancer” (Trin Therapeutics GmbH, priority 2007, dated 2011).

Test system: MAXF 401
Test: MAXF 401 breast tumour xenograft in nude mice
Type: in vivo
Details: for tumour remission: within 4 weeks of treatment
Description: All the tests were carried out using female nude mice under standard conditions for the keeping of animals with controlled illumination and temperature. The animals were given water and food as desired.
The increase in the volume of the individual tumours was measured using microcallipers, and the size of the tumour was calculated according to the formula a*b^2/2 (where a is the largest diameter of the tumour and b is the vertical axis). When the tumour volume had increased to 80-120 mm^3, the animals were allocated at random into test groups of in each case 6 animals.
The test compounds (in the form of sodium salts) were dissolved in a saline solution, and 5% Klucel (hydroxypropylcellulose) was added in order to dissolve all the test compounds in the same carrier. […] A volume of 10 ml/kg body weight was injected. Animals that received only the carrier served as control. The test compounds were treated according to the scheme of twice weekly administration over a period of […]. The tumour volume and the body weight were checked twice weekly, and the relative tumour volumes were calculated as the ratio of tumour size to body weight.
On the basis of the relative tumour volumes of the animals treated with the test compounds compared with the tumour volumes of the controls treated only with the carrier, the T/C values were calculated and were used as the index of anti-tumour activity.
Subcutaneous implantation of the tumour and the determination of the tumour volume were carried out as described hereinbefore. The above-mentioned salts of the test substance were administered by ip injection twice weekly in the mentioned doses in the form of an aqueous solution, over a period of 4 weeks. […]
Subcutaneous implantation of the tumour and the determination of tumour volumes were carried out as described hereinbefore. The test substance was administered by ip injection twice weekly in the mentioned doses in the form of the sodium salt as an aqueous solution, over a period of 4 weeks.

[1] = equimolar to 350 mg/kg of comparison compound, twice weekly
[2] = equimolar to 350 mg/kg of comparison compound

| SMILES | tolerability [1] | tumour remission [2] | tolerability (dose range used, ip twice weekly over 4 weeks) |
| --- | --- | --- | --- |
| CN(C)/N=N/c1ccc(C(=O)c2ccc(OCC(=O)NCC(=O)O)cc2)cc1 [Example 4, {2-[4-(4-[(1E)-3,3-dimethyl-1-triazenyl]-benzoyl)-phenoxy]-acetylamino}acetic acid] | well tolerated | marked tumour remission |  |
| CN(C)/N=N/c1ccc(C(=O)c2ccc(OCCC(=O)NCC(=O)O)cc2)cc1 [Example 2, {3-[4(4-[(1E)-3,3-dimethyl-1-triazenyl]-benzoyl)-phenoxyl]propionylamino} acetic acid] | well tolerated | marked tumour remission |  |
| CN(C)/N=N/c1ccc(C(=O)c2ccc(OCCC(=O)NCC(=O)[O-])cc2)cc1.[Na+] [Example 2a] |  |  | well tolerated |
